Results: patent US6528656B1, “Linear or cyclic aminophosphonates as pH markers in phosphorus 31 NMR spectroscopy” (Centre National de la Recherche Scientifique (CNRS), priority 1998, dated 2003)

Assay: physchem
Format: physicochemical

| Structure (SMILES) | pKa |
| --- | --- |
| CCOP(=O)(OCC)C1(C)CCCN1 (centres unmarked) [Compound 1, 2-methyl-2-diethoxyphosphorylpyrrolidine] | 6.75 |
| CCOP(=O)(OCC)C1(c2ccccc2)CCCN1 (centres unmarked) [Compound 5, 2-phenyl-2-diethoxyphosphorylpyrrolidine] | 5.73 |
| CCCNC(C)(c1ccccc1)P(=O)(OCC)OCC (centres unmarked) [Compound 6, N-propyl-N-[1-phenyl-1-diethoxyphosphorylethyl]amine] | 5.67 |
| CCCNC(C)(C)P(=O)(OCC)OCC [Compound 7, 2-propylamino-2-diethoxyphosphorylpropane] | 6.77 |
| CCCCNC(C)CP(=O)(OCC)OCC (centres unmarked) [Compound 8, N-[(1-methyl-2-diethoxyphosphoryl)ethyl]-N-n-butylamine] | 8.64 |
